pIC50: −log10 of the molar value.
What was measured:
MCF7 = experiment: The compound was evaluated for cytotoxicity by assessing 3H thymidine uptake in MCF-7 cell line; type: functional, cell-based, Homo sapiens
LNCaP = experiment: The compound was evaluated for cytotoxicity by assessing 3H thymidine uptake in LNCaP cell line; type: functional, cell-based, Homo sapiens

In the case of `CN(CCCl)CCCl`, the pIC50 (MCF7) was 4.15 and the pIC50 (LNCaP) was 4.19.

— ChEMBL document CHEMBL1133295, “Towards enzyme activated antiprostatic agents” (Bioorg Med Chem Lett, 2000)
